The list shows a part of the results, in another mix than the full data. Inconclusive results are not listed. Some salts or complexes appear as unconnected parts, following the source record. Calls of active or inactive are those of the source. No stated cut-off is given here; in the data, active means CPE inhibition above about 20% (passing the limit was not always enough); inconclusive means no clear call, values can overlap the other calls; tested in BHK-21 cells.
assay: inhibitors of DENV2 cytopathic effect, primary screen, cell-based, plate reader, single concentration (AID 651640); details: DENV2-infected cells, cytopathic effect rescue, at 9.99 µM, hits give high values;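 further: 0% = median of neutral control wells and 100% = median of positive control wells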

| Structure (SMILES) | CPE inhibition |
| --- | --- |
| O=[N+]([O-])c1cc([N+](=O)[O-])c(-c2cnn(-c3ccccc3)c2)c([N+](=O)[O-])c1 | inactive: -6.37% |
| CN(Cc1cccnc1)C(=O)COc1ccc(Cl)c(Cl)c1.O=[N+]([O-])c1cc([N+](=O)[O-])c(O)c([N+](=O)[O-])c1 | inactive: -7.39% |
| COc1ccc(-c2ccccn2)cc1.O=[N+]([O-])c1cc([N+](=O)[O-])c(O)c([N+](=O)[O-])c1 | inactive: 3.41% |
| CCCOc1ccc(NP(C)(=O)Oc2ccc(Cl)cc2)cc1 (stereo not given) | inactive: 1.52% |
| CN1CCCCC1COC(=O)C1(O)c2ccccc2CCc2ccccc21 (stereo not given) | inactive: 2.42% |
| CCOC(=O)C(CC)C1=NC(C)(C)Cc2ccccc21.O=[N+]([O-])c1cc([N+](=O)[O-])c(O)c([N+](=O)[O-])c1 (stereo not given) | inactive: -3.75% |
| O=[N+]([O-])c1cc([N+](=O)[O-])c(Nc2nnnn2CCO)c([N+](=O)[O-])c1 | inactive: 3.41% |
| O=C(O)c1cccc(Nc2c([N+](=O)[O-])cc([N+](=O)[O-])cc2[N+](=O)[O-])c1 | inactive: 2.61% |
| CP(=O)(Nc1cccc(Br)c1)Oc1ccccc1 (stereo not given) | inactive: 4.12% |
| CCOC(=O)c1ccc(NP(C)(=O)Oc2cc(C)cc(C)c2)cc1 (stereo not given) | inactive: -7.71% |
| Cc1cc(C)cc(OP(C)(=O)Nc2ccc(C)cc2C)c1 (stereo not given) | inactive: 11.3% |
| COc1ccccc1OP(C)(=O)Nc1cccc(Br)c1 (stereo not given) | inactive: 2.22% |
| COc1ccccc1-c1ccccn1.O=[N+]([O-])c1cc([N+](=O)[O-])c(O)c([N+](=O)[O-])c1 | inactive: -5.71% |
| CCN(CC)CCCOC(=O)C(O)(c1ccccc1)c1ccccc1 | inactive: 3.22% |
| Cc1cc(C)cc(OP(C)(N)=O)c1 (stereo not given) | inactive: 9.29% |
| COc1ccccc1OP(C)(=O)Nc1cc(Cl)ccc1C (stereo not given) | inactive: 4.15% |
| O=[N+]([O-])c1ccc2c(c1)C=Nc1ccccc1O2 | inactive: -3.1% |
| Cc1cccc(C)c1OP(C)(N)=O (stereo not given) | inactive: 11.5% |
| CC(C)(C)c1ccc(OP(C)(=O)Nc2ccc(SC(F)(F)F)cc2)cc1 (stereo not given) | inactive: -17% |
| O=[N+]([O-])c1cc([N+](=O)[O-])c(Nc2cccnc2)c([N+](=O)[O-])c1 | inactive: -3.68% |
| COc1ccccc1OP(C)(=O)Nc1ccccc1 (stereo not given) | inactive: 0.102% |
| CP(=O)(Nc1ccccn1)Oc1ccc(Cl)cc1 (stereo not given) | inactive: -1.71% |
| O=[N+]([O-])c1cc([N+](=O)[O-])c(O)c([N+](=O)[O-])c1.c1ccc(Oc2ccncc2)cc1 | inactive: -11.3% |
| CP(=O)(NC(=O)Nc1ccccc1)Oc1ccccc1 (stereo not given) | inactive: -3.15% |
| CCc1ccc(OP(C)(=O)N2CCN(c3ccc([N+](=O)[O-])cc3)CC2)cc1 (stereo not given) | inactive: -3.39% |
| CN(C)C(=O)c1c([N+](=O)[O-])cc([N+](=O)[O-])cc1[N+](=O)[O-] | inactive: 0.316% |
| COc1ccccc1OP(C)(=O)Nc1ccccc1Br (stereo not given) | inactive: -0.856% |
| O=C(OCCCN1CCCC1)C(O)(c1ccccc1)C1CCCCC1 (stereo not given) | inactive: 0.451% |

| Structure (SMILES) | CPE inhibition |
| --- | --- |
| CCc1ccc(OP(C)(=O)Nc2cccnc2)cc1 (stereo not given) | inactive: 13.8% |
| CCOC(=O)c1ccc(NP(C)(=O)Oc2ccc(Cl)cc2)cc1 (stereo not given) | active: 42.7% |
| Nc1ccc2c(ccc3cccnc32)n1.O=[N+]([O-])c1cc([N+](=O)[O-])c(O)c([N+](=O)[O-])c1 | inactive: 6.31% |
| CCCCCCCCCCCCCCCC1C[N+](C)(C)CCOP(C)(=O)O1 (stereo not given) | inactive: 9.86% |
| CP(=O)(Nc1ccc(Cl)cc1Cl)Oc1ccccc1 (stereo not given) | inactive: -1.53% |
| CP(=O)(OCCOc1ccccc1)OCCOc1ccccc1 | inactive: 1.5% |
| O=C1C(O)=C([N+](=O)[O-])C(=O)C(O)=C1[N+](=O)[O-] | inactive: -3.75% |
| O=[N+]([O-])c1cc([N+](=O)[O-])c(Nc2ccccn2)c([N+](=O)[O-])c1 | inactive: 3.54% |
| COc1ccccc1OP(C)(=O)Nc1ccc(Br)cc1 (stereo not given) | inactive: 0.615% |
| COc1ccc2c(c1O)-c1c(O)c(OC)cc3c1[C@H](C2)[N+](C)(C)CC3.O=[N+]([O-])c1cc([N+](=O)[O-])c([O-])c([N+](=O)[O-])c1[O-] | inactive: 2.46% |
| O=C(OC1CN2CCC1CC2)c1ccc([N+](=O)[O-])cc1 (stereo not given) | inactive: 4.14% |
| O=C(OCCN1CCN(CCOCc2ccccc2)CC1)C(O)(c1ccccc1)c1ccccc1 | inactive: -8.59% |
| CP(=O)(Nc1ccccc1F)Oc1ccccc1 (stereo not given) | inactive: -5.21% |
| CC(C)c1ccc(OP(C)(=O)Nc2ccc(SC(F)(F)F)cc2)cc1 (stereo not given) | inactive: 2.85% |
| CCCCCOc1ccc(NP(C)(=O)Oc2ccc(Cl)cc2Cl)cc1 (stereo not given) | inactive: -6.66% |
| O=[N+]([O-])c1cc([N+](=O)[O-])c(OC2CCCCC2O)c([N+](=O)[O-])c1 (stereo not given) | inactive: -2.33% |
| Cc1c([N+](=O)[O-])cc([N+](=O)[O-])c(Br)c1[N+](=O)[O-] | inactive: 7.77% |
| COc1ccc(OP(C)(=O)Nc2ccc(SC(F)(F)F)cc2)cc1 (stereo not given) | inactive: -6.46% |
| CCN(CC)CCCNc1ccccc1[N+](=O)[O-].O=[N+]([O-])c1cc([N+](=O)[O-])c(O)c([N+](=O)[O-])c1 | inactive: -5.3% |
| Cc1c(C(c2ccc3c(c2)OCO3)c2c(C)n(C)n(-c3ccccc3)c2=O)c(=O)n(-c2ccccc2)n1C.O=[N+]([O-])c1cc([N+](=O)[O-])c(O)c([N+](=O)[O-])c1 | inactive: 3.28% |
| O=[N+]([O-])c1ccc(OP2(=O)COCCO2)cc1 (stereo not given) | inactive: 0.78% |
| O=[N+]([O-])c1cc([N+](=O)[O-])c(NCC2CCS(=O)(=O)C2)c([N+](=O)[O-])c1 (stereo not given) | inactive: -2% |
| Cc1cc(-c2cccc3ccccc23)c(C)cn1.O=[N+]([O-])c1cc([N+](=O)[O-])c(O)c([N+](=O)[O-])c1 | inactive: -0.723% |
| COc1ccc(NP(C)(=O)Oc2ccccc2OC)cc1 (stereo not given) | inactive: 4.29% |
| O=[N+]([O-])c1cc([N+](=O)[O-])c(C(F)(F)F)c([N+](=O)[O-])c1O | inactive: -3.16% |
| CCOP(=O)(CC)OCC | inactive: -14.1% |
| CP(=O)(Nc1ccc(SC(F)(F)F)cc1)Oc1ccc(F)cc1 (stereo not given) | inactive: -3.86% |

From PubChem BioAssay AID651640 (Broad Institute, 2012)
